ChEMBL document CHEMBL1938391, “Design and synthesis of novel photoaffinity probes for study of the target proteins of oleanolic acid” (Bioorg Med Chem Lett, 2012)

Target: T1, Glycogen phosphorylase, muscle form (Oryctolagus cuniculus, UniProt P00489)
T1 sequence (P00489 whole entry): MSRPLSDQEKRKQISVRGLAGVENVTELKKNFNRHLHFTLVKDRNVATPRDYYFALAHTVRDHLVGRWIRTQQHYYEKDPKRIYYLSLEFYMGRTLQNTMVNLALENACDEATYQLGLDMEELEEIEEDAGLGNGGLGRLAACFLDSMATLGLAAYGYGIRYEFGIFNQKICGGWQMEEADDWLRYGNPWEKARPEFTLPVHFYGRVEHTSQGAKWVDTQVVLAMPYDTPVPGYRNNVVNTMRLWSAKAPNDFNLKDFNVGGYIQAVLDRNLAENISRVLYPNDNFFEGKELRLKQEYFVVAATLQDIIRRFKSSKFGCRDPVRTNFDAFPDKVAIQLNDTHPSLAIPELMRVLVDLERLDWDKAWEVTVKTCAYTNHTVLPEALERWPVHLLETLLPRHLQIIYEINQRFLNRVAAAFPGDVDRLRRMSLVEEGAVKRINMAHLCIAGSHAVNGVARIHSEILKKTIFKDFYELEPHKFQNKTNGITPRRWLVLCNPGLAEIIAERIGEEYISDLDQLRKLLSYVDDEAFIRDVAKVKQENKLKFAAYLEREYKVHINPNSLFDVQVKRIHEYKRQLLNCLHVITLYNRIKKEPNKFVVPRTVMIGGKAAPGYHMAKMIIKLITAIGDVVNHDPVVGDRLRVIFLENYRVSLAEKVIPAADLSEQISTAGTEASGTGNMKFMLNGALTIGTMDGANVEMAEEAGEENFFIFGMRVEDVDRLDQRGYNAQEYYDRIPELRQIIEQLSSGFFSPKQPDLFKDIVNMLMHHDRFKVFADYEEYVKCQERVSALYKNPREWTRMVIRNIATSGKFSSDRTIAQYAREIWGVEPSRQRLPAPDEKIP
Assay: Inhibition of rabbit muscle glycogen phosphorylase a assessed as release of phosphate from glucose-1-phosphate after 25 mins using malachite green staining

IC50: 22.9 µM
SMILES: CC1(C)CC[C@]2(C(=O)O)CC[C@]3(C)C(=CC[C@@H]4[C@@]5(C)CC[C@H](O)C(C)(C)[C@@H]5CC[C@]43C)[C@@H]2C1 [OLEANOLIC_ACID]
